# In article PMC10138348, “Continuous Fluorescent Sirtuin Activity Assay Based on Fatty Acylated Lysines” (International Journal of Molecular Sciences, 2023):
# Test system: F4
# Assay: purified protein, by the assay type
Substance,Km (other: SIRT3) [µM],"Km (other: SIRT2, 500 µM NAD+, 25 °C, 96-well plate) [µM]","Km (other: SIRT2, plate type 384 well) [µM]","Km (other: SIRT2, plate type 1536 well) [µM]"
SIRT3 (Homo sapiens),0.53 ± 0.07,,,
SIRT2 (Homo sapiens),,0.033 ± 0.005,0.027 ± 0.002,0.060 ± 0.009
